{
  "source": "patent US20090325867A1",
  "about": "“RECEPTOR-SPECIFIC TUMOUR NECROSIS FACTOR-RELATED APOPTOSIS-INDUCING LIGAND (TRAIL) VARIANTS” (MEDICAL RESEARCH COUNCIL, priority 2005, published 2009)",
  "molecules": {"B1": {"name": "TRAIL.R2-6: His-TRAIL (95-281) with 189Gln, 191Lys, 193Arg, 264Arg, 266Leu, 267Gln; TRAIL-R2 selective mutant (protein)", "chain": "TSEETISTVQEKQQNISPLVRERGPQRVAAHITGTRGRSNTLSSPNSKNEKALGRKINSWESSRSGHSFLSNLHLRNGELVIHEKGFYYIYSQTQFKFREEIKENTKNDKQMVQYIYKYTSYPDPILLMKSARNSCWSKDAEYGLYSIYQGGIFELKENDRIFVSVTNERLLQMDHEASFFGAFLVG", "modifications": "biotin (site not stated) in the DISC analysis only; not biotinylated in the apoptosis assays"}},
  "tested_on": "primary MCL cells",
  "experiment": "Apoptosis in freshly isolated primary MCL cells with or without depsipeptide pre-treatment",
  "type": "cell-based, human",
  "conditions": "pre-treatment 16 h with depsipeptide (5 nM), depsipeptide alone 35.4±5%",
  "experimental": "Ramos, an Epstein-Barr virus-negative Burkitt's lymphoma cell line, and Jurkat T cells (clone E6-1) were cultured as described (MacFarlane et al (2005 Cell Death and Differentiation vol 12 pages 773-782)). Blood samples were obtained from CLL patients, with patient consent and local ethical committee approval and CLL cells purified as described (MacFarlane et al (2002 Oncogene 21, 6809-6818). Cells were incubated for 16 h with depsipeptide (10 nM), provided by Dr. E. Sausville (NCI, USA). Cells were then cultured for a further 6 h with either HGSETR1 or HGS-ETR2, agonistic mAbs to TRAIL-R1 or -R2, respectively (Human Genome Sciences, Rockville, Md.), His-TRAIL-LE (a recombinant TRAIL with low endotoxin—Alexis Corporation, Nottingham, UK), His-TRAIL, a similar form of human recombinant TRAIL (MacFarlane et al (1997 J Biol Chem 272, 25417-25420)) but not further purified to reduce endotoxin levels or a mutant form of His-TRAIL as described (MacFarlane et al., 2005 ibid.). […] Samples were either analyzed immediately for apoptosis or stored at −80° C. for subsequent Western blotting. […]\nApoptosis was quantified by phosphatidylserine (PS) externalization in the presence of propidium iodide as described (MacFarlane et al., 2002 ibid.). Samples for Western blot analysis were prepared and caspase processing detected as described (Inoue et al., 2004 ibid.; MacFarlane et al., 2005 ibid.). […]",
  "data": [
    {"molecule": "B1", "values": [
      {"measurement": "apoptosis, ligand or antibody after depsipeptide pre-treatment", "result": "35.5±3.1", "unit": "%"}
    ]}
  ]
}
